# Test results from ChEMBL document CHEMBL4673296, “Design, Synthesis, and Characterization of an Orally Active Dual-Specific ULK1/2 Autophagy Inhibitor that Synergizes with the PARP Inhibitor Olaparib for the Treatment of Triple-Negative Breast Cancer” (J Med Chem, 2020).
# What was measured:
# [1] = target: T1, Serine/threonine-protein kinase ULK1 (Homo sapiens, UniProt O75385); assay: Inhibition of recombinant human ULK1 (1-649) expressed in Sf9 cells using myelin basic protein as substrate by ADP-glo assay
# T1 sequence (O75385 whole entry): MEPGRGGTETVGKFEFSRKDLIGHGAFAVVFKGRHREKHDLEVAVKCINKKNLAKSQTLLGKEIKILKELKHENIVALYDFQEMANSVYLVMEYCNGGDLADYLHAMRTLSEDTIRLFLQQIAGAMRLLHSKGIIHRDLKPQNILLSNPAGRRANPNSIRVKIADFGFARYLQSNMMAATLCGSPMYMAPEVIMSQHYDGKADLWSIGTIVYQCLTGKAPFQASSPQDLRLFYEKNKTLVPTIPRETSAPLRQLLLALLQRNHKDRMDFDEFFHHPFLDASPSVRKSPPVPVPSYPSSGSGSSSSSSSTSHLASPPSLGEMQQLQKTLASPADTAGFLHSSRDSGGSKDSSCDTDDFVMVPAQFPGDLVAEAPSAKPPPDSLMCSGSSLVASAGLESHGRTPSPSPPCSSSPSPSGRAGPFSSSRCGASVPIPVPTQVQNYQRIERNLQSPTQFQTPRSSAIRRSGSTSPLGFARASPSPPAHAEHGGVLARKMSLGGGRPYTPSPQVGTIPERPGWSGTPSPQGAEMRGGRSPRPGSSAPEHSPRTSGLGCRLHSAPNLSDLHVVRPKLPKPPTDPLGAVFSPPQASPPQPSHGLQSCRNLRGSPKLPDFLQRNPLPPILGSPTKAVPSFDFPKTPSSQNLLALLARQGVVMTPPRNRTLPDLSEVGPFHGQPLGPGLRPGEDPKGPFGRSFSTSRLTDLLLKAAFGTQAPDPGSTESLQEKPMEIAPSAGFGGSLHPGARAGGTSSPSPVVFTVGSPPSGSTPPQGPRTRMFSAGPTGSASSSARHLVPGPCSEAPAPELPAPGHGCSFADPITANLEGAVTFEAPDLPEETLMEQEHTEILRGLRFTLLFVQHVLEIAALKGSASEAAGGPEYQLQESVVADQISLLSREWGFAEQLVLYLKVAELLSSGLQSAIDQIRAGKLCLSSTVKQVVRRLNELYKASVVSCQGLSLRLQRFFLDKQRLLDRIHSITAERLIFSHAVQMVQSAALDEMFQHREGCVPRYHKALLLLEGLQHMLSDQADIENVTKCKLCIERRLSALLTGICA
# [2] = target: T1, Serine/threonine-protein kinase ULK1; assay: Inhibition of ULK1 (unknown origin) expressed in HEK293T cells incubated for 2 hrs by NanoBRET assay; type: cell-based
# [3] = target: T2, Serine/threonine-protein kinase ULK1 (Homo sapiens) (UniProt O75385); assay: Inhibition of Myc-tagged ULK1 (unknown origin) expressed in HEK293T cells cotransfected with wild-type Flag tagged Vps34 assessed as decrease in pVPS34 Ser249 at 10 uM measured after 1 hr by Western blot analysis relative to control; type: cell-based
# T2 sequence (whole entry): T1 sequence (O75385 whole entry)
# [4] = target: T2, Serine/threonine-protein kinase ULK1 (Homo sapiens); assay: Binding affinity to recombinant human ULK1 assessed as change in melting temperature at 10 uM by thermal shift assay
SMILES,IC50 [1],IC50 [2],inhibition [3],ΔTm [4]
FC(F)(F)c1cnc(Nc2ccc3[nH]ncc3c2)nc1NC1CC1,14 nM,1480 nM,,
Oc1ccccc1Nc1ncc(C(F)(F)F)c(NC2CC2)n1,50 nM,6040 nM,,
FC(F)(F)c1cnc(Nc2ccc3nc[nH]c3c2)nc1NC1CC1,5 nM,585 nM,,
FC(F)(F)c1cnc(Nc2ccc3nccnc3c2)nc1NC1CC1,13 nM,1460 nM,,
CNC(=O)c1ccccc1Oc1nc(Nc2cc(OC)c(OC)c(OC)c2)ncc1Br,130 nM,,70%,9.5 °C
